For orientation: Ki means a measure of affinity in units of concentration, obtained from inhibition or displacement. Read a low Ki as tighter binding. The term IC50 denotes the midpoint of a concentration-inhibition curve.

Where two headings read alike, the source gives them in different places.

This test concerns the target human plasma derived thrombin (Homo sapiens, UniProt P00734).

Consider `CC[C@H](C)[C@H](NC(=O)[C@H](CCC(=O)O)NC(=O)[C@H](CCC(=O)O)NC(=O)[C@H](Cc1ccccc1)NC(=O)[C@H](CC(=O)O)NC(=O)[C@H](Cc1ccccc1)NC(=O)[C@@H]1CCCN1C(=O)[C@@H]1CCCN1C(=O)[C@H](C)NC(=O)[C@@H](NC(=O)[C@H](CCCCN)NC(=O)[C@H](Cc1c[nH]cn1)NC(=O)[C@H](CCSC)NC(=O)[C@H](CCCCN)NC(=O)[C@@H]1CCCN1C(=O)[C@@H](N)CCC(=O)O)[C@@H](C)O)C(=O)N1CCC[C@H]1C(=O)N[C@@H](CCC(=O)O)C(=O)N[C@@H](CCC(=O)O)C(=O)N[C@@H](Cc1ccc(O)cc1)C(=O)N[C@@H](CC(C)C)C(=O)N[C@@H](CC(=O)O)C(=O)N[C@@H](CC(=O)O)C(=O)N[C@@H](CCC(=O)O)C(=O)N[C@@H](CO)C(=O)O` [EP25A22E], for which affinity was put at a Ki of 0.311 ± 0.07 nM. Moreover, the IC50 (pre-incubation time 0 min) is 124 nM. The same compound yielded an IC50 (pre-incubation time 20 min) of 13.5 ± 2.08 nM. In addition, half-maximal inhibition (pre-incubation time 30 min) (IC50) required 13.6 nM.

The record behind these values is patent US20130183237A1 (priority 2007, published 2013).
